Entries after “also recorded” stand apart in the source; their conditions may differ. Like-named read-outs stand apart in the source and are kept apart here.
Legend:
[1] = tested on: mouse; conditions: i.p., literature value; cited from earlier work
[2] = tested on: platelet aggregation induced with ADP (platelet rich plasma); assay: In vitro anti-platelet aggregant activity (Born's method, ADP-induced aggregation); type: cell-based, rat; conditions: for inhibition at 1 µg/mL / inhibition at 5 µg/mL / inhibition at 10 µg/mL: Rattus norvegicus, Platelet, 0.05 h, 3 min incubation; for inhibition at 1 µg/mL: dose 1 γ/ml; for inhibition at 5 µg/mL: dose 5 γ/ml; for inhibition at 10 µg/mL: dose 10 γ/ml
[3] = tested on: guinea pig tracheal chains (histamine as bronchoconstrictor); assay: Broncholytic activity in vitro on tracheal chains (Akasu's method), antagonism of histamine; type: cell-based; conditions: summary in words
[4] = Antinflammatory and analgesic effects (no method described); conditions: summary in words; no data shown
[5] = in vivo; conditions: mouse
[6] = Solubility; type: physicochemical; conditions: in dichloromethane, N,N'-dimethylformamide
[7] = read-out: Inhibition % of platelet aggregation, ADP 7,08 μmol/l
[8] = ADP 7,08 μmol/l, read-out: Inhibition % of platelet aggregation

CC(=O)Oc1ccccc1C(=O)O [Aspirin, reference compound]
DL50 (LD50) [1]: 495 mg/kg
inhibition at 1 µg/mL ([2]; read-out: Inhibition % of platelet aggregation, ADP 2 μmol/l): 29%
inhibition at 1 µg/mL ([2]; read-out: Inhibition % of platelet aggregation, ADP 5 μmol/l): 19%
inhibition at 1 µg/mL [2, 7]: 15%
inhibition at 5 µg/mL [2, 7]: 60%
inhibition at 10 µg/mL [2, 7]: 100%

Cc1ccc(C(=O)c2ccc(CC(=O)NCCn3cnc4c3c(=O)n(C)c(=O)n4C)n2C)cc1 [compound (1), 7-(1-methyl-5-p-methylbenzoylpyrrole-2-acetamidoethyl)theophylline]
inhibition at 1 µg/mL ([2]; ADP 2 μmol/l, read-out: Inhibition % of platelet aggregation): 30%
inhibition at 1 µg/mL ([2]; ADP 5 μmol/l, read-out: Inhibition % of platelet aggregation): 21%
inhibition at 1 µg/mL [2, 8]: 12%
inhibition at 5 µg/mL [2, 8]: 59%
inhibition at 10 µg/mL [2, 8]: 90%
anti-platelet aggregant activity ([2]; summary in words): pronounced therapeutically useful anti-platelet aggregant activity
broncholytic activity [3]: good broncholytic action; also recorded: good broncholytic activity comparable to that of theophylline
analgesic effect [4]: low antinflammatory and analgesic effects
antinflammatory effect [4]: low antinflammatory and analgesic effects
LD50 ([5]; ip): 970 mg/kg
LD50 ([5]; po): 1400 mg/kg
Solubility [6]: soluble in dichloromethane, N,N'-dimethylformamide

Reference: patent US4571399A, “7-(1-Methyl-5-p-methylbenzoylpyrrole-2-acetamidoethyl)-theophylline with anti-platelet aggregant and broncholytic activity” (Medosan Industrie Biochimiche Riunite S.p.A., priority 1983, dated 1986)
